Source: patent US5466809A, “Process for the preparation of immunostimulating swainsonine analogs” (Toronto Research Chemicals, Inc., priority 1994, dated 1995)

Target: T1, Jack Bean alpha-mannosidase (Canavalia ensiformis, UniProt C0HJB3)
T1 sequence (C0HJB3 1-981): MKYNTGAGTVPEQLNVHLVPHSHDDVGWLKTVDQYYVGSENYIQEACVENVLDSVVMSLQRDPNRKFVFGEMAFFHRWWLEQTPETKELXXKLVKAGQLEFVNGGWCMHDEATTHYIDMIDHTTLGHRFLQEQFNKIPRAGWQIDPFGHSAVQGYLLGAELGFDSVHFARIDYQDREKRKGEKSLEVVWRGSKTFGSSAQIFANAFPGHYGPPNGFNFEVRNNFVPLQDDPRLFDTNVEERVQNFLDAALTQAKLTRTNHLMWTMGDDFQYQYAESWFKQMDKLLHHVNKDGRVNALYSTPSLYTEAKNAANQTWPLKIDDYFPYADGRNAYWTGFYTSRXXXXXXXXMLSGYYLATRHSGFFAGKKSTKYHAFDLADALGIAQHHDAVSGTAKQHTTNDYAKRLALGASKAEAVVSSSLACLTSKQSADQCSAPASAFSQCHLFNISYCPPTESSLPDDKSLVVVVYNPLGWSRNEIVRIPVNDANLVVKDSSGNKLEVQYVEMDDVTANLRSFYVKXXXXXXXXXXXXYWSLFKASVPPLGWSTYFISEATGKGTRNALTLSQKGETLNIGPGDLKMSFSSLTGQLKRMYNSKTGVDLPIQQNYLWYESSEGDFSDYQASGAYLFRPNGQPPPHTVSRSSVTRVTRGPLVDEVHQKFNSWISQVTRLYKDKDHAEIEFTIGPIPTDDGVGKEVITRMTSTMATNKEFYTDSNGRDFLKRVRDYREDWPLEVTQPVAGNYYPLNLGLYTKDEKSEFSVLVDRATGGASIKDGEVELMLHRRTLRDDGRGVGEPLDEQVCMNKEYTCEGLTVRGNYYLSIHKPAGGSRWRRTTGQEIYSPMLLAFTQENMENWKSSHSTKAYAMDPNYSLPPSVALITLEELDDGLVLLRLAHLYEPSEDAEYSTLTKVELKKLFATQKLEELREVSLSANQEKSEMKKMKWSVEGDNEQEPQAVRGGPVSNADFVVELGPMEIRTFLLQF
Test: Jack Bean alpha-mannosidase assay
Assay type: biochemical
Conditions: pH 6.0, 37° C., 30 minutes, p-nitrophenyl-alpha-D-mannopyranoside substrate; read-out: D50 Values (Inhibition), J.B. mannosidase (converted)
Experimental: Jack Bean alpha-Mannosidase Assay. Samples of swainsonine and its analogues (100, 30, 10, 3, 1, 0.3 or 0.1 ng) were dissolved in a total volume of 75 ul and transferred into individual wells in a 96 well plate. A volume (37.5 ul) of 0.05M sodium acetate (pH 6.0) was added to each well, followed by 37.5 ul of 0.01M p-nitrophenyl-alpha-D-mannopyanoside, and then 10 ul of a 1:400 dilution of Jack Bean alpha-mannosidase. After thoroughly shaking to mix, the mixture was incubated at 37° C. for 30 minutes. The reaction was stopped by the addition of 150 ul of 0.5M sodium carbonate (pH 10.0). The absorbance at 405 nm of the solution in the wells was determined in an ELISA plate reader.

O[C@H]1[C@H]2[C@H](O)CCCN2C[C@H]1O [swainsonine, 1S-8a-β-octahydroindolizine-1-alpha-2-alpha-8-β-triol]
IC50: 404 nM
